Chains of the proteins cited; added tags and fusions are not shown. Lines headed by an entry give the natural chain unless they say otherwise; changes in a name come on top.
UniProt P41146: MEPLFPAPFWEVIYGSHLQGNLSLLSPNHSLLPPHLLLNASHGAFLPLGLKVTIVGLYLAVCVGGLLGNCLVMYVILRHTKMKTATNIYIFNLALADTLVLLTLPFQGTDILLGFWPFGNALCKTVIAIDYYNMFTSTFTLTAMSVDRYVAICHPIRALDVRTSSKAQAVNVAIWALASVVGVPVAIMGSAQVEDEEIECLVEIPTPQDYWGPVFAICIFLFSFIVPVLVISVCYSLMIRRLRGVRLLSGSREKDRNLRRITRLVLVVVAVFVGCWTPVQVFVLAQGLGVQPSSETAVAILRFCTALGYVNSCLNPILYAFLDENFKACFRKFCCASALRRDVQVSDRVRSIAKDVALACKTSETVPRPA
UniProt P41145: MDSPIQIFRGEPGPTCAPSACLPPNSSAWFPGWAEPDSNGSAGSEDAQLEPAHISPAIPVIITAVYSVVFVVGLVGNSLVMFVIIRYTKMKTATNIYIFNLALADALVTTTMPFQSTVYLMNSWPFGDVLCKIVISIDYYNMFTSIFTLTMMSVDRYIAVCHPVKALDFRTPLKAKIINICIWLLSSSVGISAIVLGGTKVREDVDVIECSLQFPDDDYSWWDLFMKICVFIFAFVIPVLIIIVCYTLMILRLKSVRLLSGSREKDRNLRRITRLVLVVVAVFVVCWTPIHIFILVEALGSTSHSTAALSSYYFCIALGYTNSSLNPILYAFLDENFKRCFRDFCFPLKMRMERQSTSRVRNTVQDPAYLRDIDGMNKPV
UniProt P35372, whole entry, looked up: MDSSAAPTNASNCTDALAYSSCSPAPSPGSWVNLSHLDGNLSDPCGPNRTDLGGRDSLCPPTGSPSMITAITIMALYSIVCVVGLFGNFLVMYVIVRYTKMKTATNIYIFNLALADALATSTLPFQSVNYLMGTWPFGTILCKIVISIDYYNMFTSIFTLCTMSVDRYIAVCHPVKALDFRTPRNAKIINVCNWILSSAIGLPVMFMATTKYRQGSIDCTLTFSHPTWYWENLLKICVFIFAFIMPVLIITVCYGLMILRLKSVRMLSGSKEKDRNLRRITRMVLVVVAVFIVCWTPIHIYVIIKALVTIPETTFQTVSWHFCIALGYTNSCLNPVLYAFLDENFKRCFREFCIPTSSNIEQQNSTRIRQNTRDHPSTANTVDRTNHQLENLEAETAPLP
UniProt P41143, whole entry, looked up: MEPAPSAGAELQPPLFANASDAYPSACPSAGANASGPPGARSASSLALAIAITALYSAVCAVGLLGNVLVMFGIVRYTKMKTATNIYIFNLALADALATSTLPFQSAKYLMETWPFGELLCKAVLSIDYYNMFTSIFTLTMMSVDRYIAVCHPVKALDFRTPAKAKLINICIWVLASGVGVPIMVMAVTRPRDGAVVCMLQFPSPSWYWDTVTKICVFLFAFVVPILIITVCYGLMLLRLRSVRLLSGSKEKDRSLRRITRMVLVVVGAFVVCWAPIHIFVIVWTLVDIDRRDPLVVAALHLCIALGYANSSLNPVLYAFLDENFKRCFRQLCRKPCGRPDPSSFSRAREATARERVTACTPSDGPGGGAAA

According to ChEMBL document CHEMBL1138891, “3-(4-Piperidinyl)indoles and 3-(4-piperidinyl)pyrrolo-[2,3-b]pyridines as ligands for the ORL-1 receptor” (Bioorg Med Chem Lett, 2006):

Assays:
Nociceptin receptor [1] = biological target: T1, Nociceptin receptor (Homo sapiens, UniProt P41146); assay: Displacement of [125I]Tyr14-nociceptin from ORL1 receptor expressed in HEK293 cells
[2] = biological target: Kappa-type opioid receptor (Homo sapiens, UniProt P41145); assay: Displacement of [3H]U-69593 from kappa opioid receptor expressed in HEK293 cells
Mu-type opioid receptor = Mu-type opioid receptor (Homo sapiens, UniProt P35372); assay: Displacement of [3H]DAMGO from mu opioid receptor expressed in HEK293 cells
[3] = biological target: Delta-type opioid receptor (Homo sapiens, UniProt P41143); assay: Displacement of [3H]DDPDE from delta opioid receptor expressed in HEK293 cells
Nociceptin receptor [4] = biological target: T1, Nociceptin receptor; assay: Agonist activity at ORL1 receptor expressed in HEK293 cells by calciun flux assay

Row | Structure (SMILES) | Ki (Nociceptin receptor [1]) [nM] | Ki [2] [nM] | Ki (Mu-type opioid receptor) [nM] | Ki [3] [nM] | EC50 (Nociceptin receptor [4]) [nM]
1 | Fc1ccc2[nH]cc(C3CCN(Cc4cccc5ccccc45)CC3)c2c1 | 800 | 820 | 500 | > 5000 | 
2 | N#Cc1ccc2[nH]cc(C3=CCN(C4Cc5cccc6cccc4c56)CC3)c2c1 (configuration not stated) | > 5000 | > 5000 | > 5000 | > 5000 | 
3 | CN(C)C[C@@H](O)Cn1cc(C2CCN(C3Cc4cccc5cccc3c45)CC2)c2ccc(F)cc21 (some centres not stated) | 62 | > 5000 | 760 | > 5000 | 
4 | Cc1[nH]c2ccc(Cl)cc2c1C1CCN(Cc2cccc3ccccc23)CC1 | > 5000 | 750 | 880 | > 5000 | 
5 | OCCn1cc(C2CCN(C3Cc4cccc5cccc3c45)CC2)c2cccnc21 (configuration not stated) | 94 | > 5000 | 530 | > 5000 | 
6 | CC(=O)OC1CN(C2Cc3cccc4cccc2c34)CCC1c1cn(C)c2ncccc12 (configuration not stated) | > 5000 | > 5000 | > 5000 | > 5000 | 
7 | Cc1[nH]c2ccc(Cl)cc2c1C1CCN(CC2CCCCCCC2)CC1 | 710 | 330 | 1360 | 4180 | 
8 | c1cnc2[nH]cc(C3CCN(CC4CCCCC4)CC3)c2c1 | 3500 | > 5000 | > 5000 | > 5000 | 
9 | Clc1cccc2c(C3CCN(C4Cc5cccc6cccc4c56)CC3)c[nH]c12 (configuration not stated) | 57 | 2600 | 260 | > 5000 | > 80000
10 | Fc1ccc2[nH]cc(C3CCN(CC4CCCCCCC4)CC3)c2c1 | 290 | 180 | 1080 | > 5000 | 
11 | Fc1ccc2c(C3=CCN(C4Cc5cccc6cccc4c56)CC3)c[nH]c2c1 (configuration not stated) | 160 | > 5000 | > 5000 | > 5000 | 
12 | Clc1ccc2[nH]cc(C3=CCN(Cc4ccccc4)CC3)c2c1 | > 5000 | 1010 | 500 | > 5000 | 
13 | N#Cc1ccc2c(c1)c(C1=CCN(C3Cc4cccc5cccc3c45)CC1)cn2C[C@H](O)CN (some centres not stated) | 1650 | > 5000 | 4140 | > 5000 | 
14 | Clc1ccc2c(C3CCN(C4Cc5cccc6cccc4c56)CC3)cn(Cc3ccccc3)c2c1 (configuration not stated) | > 5000 | > 5000 | > 5000 | > 5000 | 
15 | c1cc2c3c(cccc3c1)C(N1CCC(c3c[nH]c4ncccc34)CC1)C2 (configuration not stated) | 4 | 2780 | 390 | > 5000 | 
16 | c1ccc2c(CN3CCC(c4c[nH]c5ncccc45)CC3)cccc2c1 | 820 | 710 | 340 | > 5000 | 
17 | Fc1ccc2[nH]cc(C3CCN(C4Cc5cccc6cccc4c56)CC3)c2c1 (configuration not stated) |  | 1890 | 500 | > 5000 | 
18 | CC(C)(C)C1CCC(C(=O)N2CCC(c3c[nH]c4ncccc34)CC2)CC1 (configuration not stated) | > 5000 | > 5000 | > 5000 | > 5000 | 
19 | Clc1cccc2c(C3CCN(CC4CCCCCCC4)CC3)c[nH]c12 | 660 | 1170 | 430 | > 5000 | 
20 | c1ccc(Oc2ccc(CN3CCC(c4c[nH]c5ncccc45)CC3)cc2)cc1 | > 5000 | > 5000 | 330 | > 5000 | 
21 | Clc1ccc2[nH]cc(C3CCN(Cc4ccccc4)CC3)c2c1 | 1140 | 330 | 230 | > 5000 | 
22 | Cn1cc(C2CCN(C3Cc4cccc5cccc3c45)CC2)c2cccnc21 (configuration not stated) | 81 | > 5000 | 900 | > 5000 | 
23 | Fc1ccc2c(C3CCN(C4Cc5cccc6cccc4c56)CC3)c[nH]c2c1 (configuration not stated) | 52 | > 5000 | 900 | > 5000 | 
24 | c1cnc2[nH]cc(C3CCN(CC4CCCCCCC4)CC3)c2c1 | 550 | 3890 | 2000 | > 5000 | 
25 | Cc1[nH]c2ccc(Cl)cc2c1C1CCN(C2Cc3cccc4cccc2c34)CC1 (configuration not stated) | 10 | 680 | 260 | 2750 | 
26 | Cn1cc(C2CCN(C3Cc4cccc5cccc3c45)CC2O)c2cccnc21 (configuration not stated) | 2 | 4300 | 170 | > 5000 | 
27 | CN(C)C[C@@H](O)Cn1cc(C2CCN(CC3CCCCCCC3)CC2)c2cc(F)ccc21 | 970 | 1900 | 2700 | > 5000 | 
28 | CCCCCCN1CCC(c2c[nH]c3ncccc23)CC1 | > 5000 | > 5000 | > 5000 | > 5000 | 
